Experimental data as given in patent US10967167B2, “Using alternating electric fields to increase permeability of the blood brain barrier” (priority 2018, dated 2021).

Test system: artificial BBB (cerebEND murine brain capillary endothelial cells)
Details: 100 kHz alternating electric fields for 72 hours; 4 kDa molecular weight

## fluoresceine isothiocyanate coupled to dextran [FITC-dextrans]
  permeability of the artificial BBB to FITC-dextrans: 110 % of the control
